Data as given in patent US9820987B2, “Modulator compounds of drug resistance in epithelial tumor cells” (BIONSIL S.R.L. in Liquidazione, priority 2007, dated 2017).

Tested on: HCT116p53KO cells
Assay: Short-term viability under targeted therapy with or without ibrutinib (MTT)
Format: cell-based, human
Details: 25 μg/ml bevacizumab, 10 μg/ml cetuximab or 75 μg/ml panitumumab alone, 72 hr

## cetuximab: monoclonal antibody used in anti-cancer therapy for targeting EGFR
  cell viability: does not affect
